{
  "source": "patent US20240174727A1",
  "about": "“LONG-ACTING NATRIURETIC PEPTIDES AND USES THEREOF” (Eli Lilly and Company, priority 2022, published 2024)",
  "key": {"[1]": {"assay": "Pharmacokinetics in male Sprague Dawley rats", "type": "in vivo", "conditions": "rat, sc, mean, single subcutaneous administration of 200 nMol/kg, plasma; for half-life: read-out: t½ (converted)", "experimental": "The pharmacokinetics of the exemplary analogs are evaluated following a single subcutaneous administration of […] to male Sprague Dawley rats. Blood samples are collected over 120 hours, and resulting individual plasma concentrations are used to calculate pharmacokinetic parameters. Peptide plasma (K3 EDTA) concentrations are determined using a qualified LC/MS method that measured the intact mass of the ANP polypeptide. Each peptide and an analog as an internal standard are extracted from 100% specie specified plasma using methanol with 0.1% formic acid. A Thermo Q-Exactive, High Resolution Instrument, and a Thermo Easy Spray PepMap are combined for LC/MS detection."}, "rat NPRA": {"biological_target": "T1, rat NPRA (Rattus norvegicus, UniProt P18910)", "T1 construct": "Full-Length cDNA Cloning and Generation of Cell Lines Overexpressing Natriuretic Peptide Receptors (NPRs); expressed in transfected cells; host or cells: Jump-in T-Rex HEK293 cells, pJTI R4 CMV-TO MCS pA vector, tetracycline induction", "T1 sequence (P18910 29-1057)": "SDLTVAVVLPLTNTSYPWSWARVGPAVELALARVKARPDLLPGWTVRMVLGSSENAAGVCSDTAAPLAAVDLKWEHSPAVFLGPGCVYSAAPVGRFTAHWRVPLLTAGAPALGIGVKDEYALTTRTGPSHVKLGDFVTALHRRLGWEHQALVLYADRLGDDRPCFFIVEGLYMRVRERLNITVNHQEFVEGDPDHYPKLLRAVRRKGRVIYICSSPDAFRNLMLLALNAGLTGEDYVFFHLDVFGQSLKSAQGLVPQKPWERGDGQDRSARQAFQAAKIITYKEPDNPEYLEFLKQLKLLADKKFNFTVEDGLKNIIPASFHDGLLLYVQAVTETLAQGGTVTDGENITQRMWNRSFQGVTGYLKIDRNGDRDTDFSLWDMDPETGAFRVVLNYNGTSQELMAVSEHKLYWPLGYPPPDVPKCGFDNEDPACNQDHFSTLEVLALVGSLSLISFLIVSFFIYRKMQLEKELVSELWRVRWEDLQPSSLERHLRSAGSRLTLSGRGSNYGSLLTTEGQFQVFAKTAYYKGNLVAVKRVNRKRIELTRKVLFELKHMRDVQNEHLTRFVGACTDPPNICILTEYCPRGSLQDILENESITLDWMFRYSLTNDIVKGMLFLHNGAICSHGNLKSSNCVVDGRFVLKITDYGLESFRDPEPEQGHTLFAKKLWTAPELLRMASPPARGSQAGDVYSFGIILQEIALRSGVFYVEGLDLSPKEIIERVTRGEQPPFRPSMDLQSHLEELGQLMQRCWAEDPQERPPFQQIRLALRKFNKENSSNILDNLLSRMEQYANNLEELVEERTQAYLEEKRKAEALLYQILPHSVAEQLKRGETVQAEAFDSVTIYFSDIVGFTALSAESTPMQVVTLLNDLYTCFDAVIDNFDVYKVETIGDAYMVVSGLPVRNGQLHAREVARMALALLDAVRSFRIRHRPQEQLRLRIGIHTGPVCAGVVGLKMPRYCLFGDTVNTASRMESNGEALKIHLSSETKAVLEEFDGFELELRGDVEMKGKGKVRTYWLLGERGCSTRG", "assay": "Rat NPRA cGMP activity assay (HTRF) in HEK293 cells overexpressing NPRA", "type": "cell-based", "conditions": "cGMP Assay (EC50, pM) w/Casein rNPRA, assay buffer with 0.1% casein", "method_in_brief": "(§1)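 Tetracycline-induced (300 ng/mL, 48 h) T-Rex HEK293 cells expressing NPRA, 4000 cells/well, treated 40 min at room temperature with polypeptide (8 points, 10 μM to 1 pM) in HBSS/HEPES buffer with 0.5 mM IBMX, pH 7.4. cGMP by HTRF, normalised to 100 nM amidated rat ANP and buffer.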"}, "human NPRA": {"biological_target": "T2, human NPRA (Homo sapiens, UniProt P16066)", "T2 construct": "Full-Length cDNA Cloning and Generation of Cell Lines Overexpressing Natriuretic Peptide Receptors (NPRs); expressed in transfected cells; host or cells: Jump-in T-Rex HEK293 cells, pJTI R4 CMV-TO MCS pA vector, tetracycline induction", "T2 sequence (P16066 33-1061)": "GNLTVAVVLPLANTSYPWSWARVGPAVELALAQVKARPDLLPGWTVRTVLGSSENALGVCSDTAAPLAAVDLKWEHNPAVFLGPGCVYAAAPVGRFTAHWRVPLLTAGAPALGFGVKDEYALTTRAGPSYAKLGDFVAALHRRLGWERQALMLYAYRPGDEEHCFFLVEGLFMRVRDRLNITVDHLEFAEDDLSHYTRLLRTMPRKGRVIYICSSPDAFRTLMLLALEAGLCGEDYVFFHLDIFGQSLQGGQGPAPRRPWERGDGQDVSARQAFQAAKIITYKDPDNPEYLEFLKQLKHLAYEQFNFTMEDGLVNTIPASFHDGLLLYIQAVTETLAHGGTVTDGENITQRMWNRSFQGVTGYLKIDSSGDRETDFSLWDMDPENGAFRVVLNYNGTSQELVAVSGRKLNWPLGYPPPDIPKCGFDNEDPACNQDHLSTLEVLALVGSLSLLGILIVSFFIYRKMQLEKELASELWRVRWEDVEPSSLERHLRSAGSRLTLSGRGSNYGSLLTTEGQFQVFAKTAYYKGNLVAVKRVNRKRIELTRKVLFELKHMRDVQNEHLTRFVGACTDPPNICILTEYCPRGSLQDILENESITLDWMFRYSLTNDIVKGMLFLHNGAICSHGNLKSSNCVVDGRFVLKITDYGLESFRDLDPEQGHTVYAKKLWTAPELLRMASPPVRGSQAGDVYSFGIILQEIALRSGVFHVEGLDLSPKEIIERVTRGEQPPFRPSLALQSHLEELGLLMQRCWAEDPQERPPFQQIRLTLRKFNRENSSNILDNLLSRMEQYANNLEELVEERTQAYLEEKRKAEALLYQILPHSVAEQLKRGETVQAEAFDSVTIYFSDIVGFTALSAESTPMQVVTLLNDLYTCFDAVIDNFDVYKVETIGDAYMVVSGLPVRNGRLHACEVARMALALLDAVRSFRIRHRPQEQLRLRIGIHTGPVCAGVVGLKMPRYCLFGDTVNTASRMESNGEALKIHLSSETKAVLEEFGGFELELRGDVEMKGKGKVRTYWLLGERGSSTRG", "assay": "Human NPRA cGMP activity assay (HTRF) in HEK293 cells overexpressing NPRA", "type": "cell-based", "conditions": "cGMP Assay (EC50, pM) w/Casein hNPRA, assay buffer with 0.1% casein", "method_in_brief": "as §1"}},
  "data": [
    {"smiles": "CC[C@H](C)[C@@H]1NC(=O)[C@H](CCCNC(=N)N)NC(=O)[C@H](CC(=O)O)NC(=O)[C@H]([C@@H](C)CC)NC(=O)[C@H](CCCCN)NC(=O)CNC(=O)CNC(=O)[C@H](Cc2ccccc2)NC(=O)[C@@H](NC(=O)[C@H](CO)NC(=O)[C@H](CO)NC(=O)[C@H](CCCNC(=N)N)NC(=O)[C@H](CCCCN)NC(=O)[C@H](Cc2ccncc2)NC(=O)[C@H](CO)NC(=O)CNC(=O)[C@H](CCCCN)NC(=O)[C@H](CCC(=O)O)NC(=O)[C@H](CCCCN)NC(=O)[C@H](CCC(=O)O)NC(=O)[C@H](CCCCN)NC(=O)[C@H](CCC(=O)O)NC(=O)CC[C@H](NC(=O)CCCCCCCCCCCCCCCCCCC(=O)O)C(=O)O)CSSC[C@@H](C(=O)N2CCC[C@H]2C(=O)N[C@@H](CO)C(=O)N[C@@H](Cc2ccccc2)C(=O)N[C@@H](CCCNC(=N)N)C(=O)N[C@@H](Cc2c[nH]cn2)C(=O)NCC(=O)NCC(=O)N2CCC[C@H]2C(=O)N[C@@H](CO)C(=O)N[C@@H](CO)C(=O)NCC(=O)N[C@@H](C)C(=O)N2CCC[C@H]2C(=O)N2CCC[C@H]2C(=O)N2CCC[C@H]2C(=O)N[C@@H](CO)C(N)=O)NC(=O)CNC(=O)[C@H](CC(C)C)NC(=O)CNC(=O)[C@H](CO)NC(=O)[C@H](CCC(N)=O)NC(=O)[C@H](Cc2c[nH]cn2)NC(=O)CNC1=O", "note": "[Example 30]", "values": [
      {"measurement": "CL/F", "setting": "[1]", "value": 0.0126, "unit": "L/h/kg"},
      {"measurement": "half-life", "setting": "[1]", "value": 16, "unit": "h"},
      {"measurement": "EC50", "setting": "rat NPRA", "value": 1130, "unit": "pM"}
    ]},
    {"smiles": "CC[C@H](C)[C@@H]1NC(=O)[C@H](CCCNC(=N)N)NC(=O)[C@H](CC(=O)O)NC(=O)[C@H]([C@@H](C)CC)NC(=O)[C@H](CCCNC(=N)N)NC(=O)CNC(=O)CNC(=O)[C@H](Cc2ccccc2)NC(=O)[C@@H](NC(=O)[C@H](CO)NC(=O)[C@H](CO)NC(=O)[C@H](CCCNC(=N)N)NC(=O)CCNC(=O)[C@H](CCCCN)NC(=O)[C@H](CCC(=O)O)NC(=O)CCOCCOCCOCCOCCOCCOCCOCCOCCOCCOCCOCCOCCOCCOCCOCCOCCOCCOCCOCCOCCOCCOCCOCCOCCNC(=O)CNC(=O)[C@H](CCCCN)NC(=O)[C@H](CCC(=O)O)NC(=O)[C@H](CCCCN)NC(=O)[C@H](CCC(=O)O)NC(=O)[C@H](CCCCN)NC(=O)[C@H](CCC(=O)O)NC(=O)CC[C@H](NC(=O)CCCCCCCCCCCCCCCCCCC(=O)O)C(=O)O)CSCSC[C@@H](C(=O)N2CCC[C@H]2C(=O)N[C@@H](CO)C(=O)N[C@@H](Cc2ccccc2)C(=O)N[C@@H](CCCNC(=N)N)C(=O)N[C@@H](Cc2c[nH]cn2)C(=O)NCC(=O)NCC(=O)N2CCC[C@H]2C(=O)N[C@@H](CO)C(=O)N[C@@H](CO)C(=O)NCC(=O)N[C@@H](C)C(=O)N2CCC[C@H]2C(=O)N2CCC[C@H]2C(=O)N2CCC[C@H]2C(=O)N[C@@H](CO)C(N)=O)NC(=O)CNC(=O)[C@H](CC(C)C)NC(=O)CNC(=O)[C@H](CO)NC(=O)[C@H](Cc2ccc(O)cc2)NC(=O)[C@H](Cc2c[nH]cn2)NC(=O)CNC1=O", "note": "[Example 62]", "values": [
      {"measurement": "CL/F", "setting": "[1]", "value": 0.0237, "unit": "L/h/kg"},
      {"measurement": "half-life", "setting": "[1]", "value": 10, "unit": "h"}
    ]},
    {"smiles": "CC[C@H](C)[C@@H]1NC(=O)[C@H](CCCNC(=N)N)NC(=O)[C@H](CC(=O)O)NC(=O)[C@H]([C@@H](C)CC)NC(=O)[C@H](CCCNC(=N)N)NC(=O)[C@H](CCCCN)NC(=O)CNC(=O)[C@H](Cc2ccccc2)NC(=O)[C@@H](NC(=O)[C@H](CO)NC(=O)[C@H](CO)NC(=O)[C@H](CCCNC(=N)N)NC(=O)CCNC(=O)[C@H](CCCCN)NC(=O)[C@H](CCC(=O)O)NC(=O)COCCOCCNC(=O)COCCOCCNC(=O)COCCOCCNC(=O)COCCOCCNC(=O)COCCOCCNC(=O)COCCOCCNC(=O)COCCOCCNC(=O)COCCOCCNC(=O)CNC(=O)[C@H](CCCCN)NC(=O)[C@H](CCC(=O)O)NC(=O)[C@H](CCCCN)NC(=O)[C@H](CCC(=O)O)NC(=O)[C@H](CCCCN)NC(=O)[C@H](CCC(=O)O)NC(=O)CC[C@H](NC(=O)CCCCCCCCCCCCCCCCCCC(=O)O)C(=O)O)CSCSC[C@@H](C(=O)N2CCC[C@H]2C(=O)N[C@@H](CO)C(=O)N[C@@H](Cc2ccccc2)C(=O)N[C@@H](CCCNC(=N)N)C(=O)N[C@@H](Cc2c[nH]cn2)C(=O)NCC(=O)N[C@@H](CO)C(=O)N2CCC[C@H]2C(=O)N[C@@H](CO)C(=O)N[C@@H](CO)C(=O)NCC(=O)N[C@@H](C)C(=O)N2CCC[C@H]2C(=O)N2CCC[C@H]2C(=O)N2CCC[C@H]2C(=O)N[C@@H](CO)C(N)=O)NC(=O)CNC(=O)[C@H](CC(C)C)NC(=O)CNC(=O)[C@H](CO)NC(=O)[C@H](Cc2ccc(O)cc2)NC(=O)[C@H](Cc2c[nH]cn2)NC(=O)CNC1=O", "note": "[Example 108]", "values": [
      {"measurement": "EC50", "setting": "rat NPRA", "value": 11200, "unit": "pM"},
      {"measurement": "EC50", "setting": "human NPRA", "value": 497, "unit": "pM"}
    ]}
  ]
}
